Laboratory results as given in paper PMC9937529, “Mechanism of activation and biased signaling in complement receptor C5aR1” (Cell Research, 2023).
Where a chain is given by its changes, count along the chain named.

Legend:
C5aR1 W102ECL1A = biological target: T1, C5aR1 W102ECL1A (Homo sapiens, UniProt P21730, W102A); assay: BRET β-arrestin 2 recruitment; type: cell-based; details: HEK293, BRET, mean±SEM, n=3, Table S3, read-out: EC50, β-arrestin2 recruitment
T1 construct: expressed in transfected cells; host or cells: HEK293
T1 sequence (P21730 1-350 W102A): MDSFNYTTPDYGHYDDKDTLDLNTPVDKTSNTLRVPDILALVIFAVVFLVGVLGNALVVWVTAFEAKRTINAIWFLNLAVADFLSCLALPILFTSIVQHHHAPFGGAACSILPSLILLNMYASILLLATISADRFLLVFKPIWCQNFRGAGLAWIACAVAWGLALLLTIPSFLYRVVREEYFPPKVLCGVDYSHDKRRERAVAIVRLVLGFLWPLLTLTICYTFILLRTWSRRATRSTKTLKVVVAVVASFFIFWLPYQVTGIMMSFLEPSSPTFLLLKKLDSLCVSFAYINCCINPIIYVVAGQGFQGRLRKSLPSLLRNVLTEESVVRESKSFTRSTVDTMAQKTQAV
Protocol: Briefly, HEK293 cells were transiently transfected with C5aR1-Nluc and mVenus-β-arrestin 2 or C5aR2-mVenus and Nluc-β-arrestin 2 constructs using PEI transfection reagent (YEASEN, 40816ES02) according to the manufacturer’s instruction. At 24 h post transfection, the cells were gently detached and seeded (100,000/well) onto 96-well white plates in DMEM containing 5% FBS. On the next day, cells were washed once with Phosphate Buffered Saline (PBS) and incubated in HBSS containing 20 mM HEPES, pH 7.4, with coelenterazine h (5 μM, YEASEN, 40906ES02) for 1 h (37 °C, 5% CO2). […] We carried out the nonlinear regression (curve fit) dose-response function in GraphPad Prism 7 to yield the values of Emax and EC50.

C5aR1 wild type = biological target: T2, C5aR1 wild type (Homo sapiens, UniProt P21730); assay: BRET-based Gαi1–γ2 dissociation assay (G protein signaling); type: cell-based; details: HEK293, Gi protein dissociation assay (Fig. S10a), ligand 10 min, mean±SEM, n=3
T2 construct: expressed in transfected cells; host or cells: HEK293
T2 sequence (P21730 1-350): T1 sequence (P21730 1-350 W102A) with A102W
Protocol: The activation of C5aR1 induced by ligands was measured through BRET-based Gαi1 dissociation from Gβ1γ2 as previously described.[60] HEK293 cells were plated in 6-well plates containing 600,000–800,000 cells per well and cultured 24 h at 37 °C in cell incubator. […] After transfection for 24 h, cells were harvested and dispensed into 96-well white plates and allowed to culture overnight. […] Next, prepared ligands were added into cells for 10 min and the second BRET signal was measured. […] Data were analyzed using a simulation dose-response in GraphPad Prism 7.

EC50 (C5aR1 W102ECL1A): 51.5 ± 18.3 nM
EC50 (C5aR1 wild type): 3.67 ± 0.46 nM
B1: C5a: 74-amino-acid complement fragment, endogenous agonist; recombinant human C5a, free cysteine replaced by arginine (protein)
chain: TLQKKIEEIAAKYKHSVVKKCCYDGARVNNDETCEQRAARISLGPRCIKAFTECCVVASQLRANISHKDMQLGR
modifications: three intramolecular disulfides; non-glycosylated (E. coli); Trx-His6 tag removed with TEV
